## scFv variants of Ab-14 (light chain) against a SARS-CoV-2 spike peptide

From the AlphaSeq antibody data of Li et al. 2023 (doi:10.1038/s41467-023-39022-2), copy in the FLAb collection.

Target peptide (SARS-CoV-2 spike, HR2 region): PDVDLGDISGINAS

Ab-14 is the parent antibody, in scFv form: VH, then a 15-residue (Gly4Ser)3 linker, then VL. The heavy chain is unchanged in all variants.
VH: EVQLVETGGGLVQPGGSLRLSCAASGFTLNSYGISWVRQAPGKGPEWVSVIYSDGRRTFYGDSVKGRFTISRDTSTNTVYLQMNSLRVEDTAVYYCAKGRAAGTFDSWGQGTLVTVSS
VL: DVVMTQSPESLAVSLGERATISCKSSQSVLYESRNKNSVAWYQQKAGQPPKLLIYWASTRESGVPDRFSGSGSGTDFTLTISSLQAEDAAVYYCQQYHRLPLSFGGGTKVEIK

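The parent was found by panning a naive human phage display library on the peptide. This is the validation round: designs drawn from the data on random variants, tested in the same kind of assay. Group labels follow the data file (Ctrl: baseline library sampled from a position-specific scoring matrix, with some repeated check sequences; En: ensemble of fine-tuned language models; GP: Gaussian process model; GPLM: also part of the Gaussian process libraries; HC: hill climbing; Gen: genetic algorithm; Gibbs: Gibbs sampling; a sequence that several methods proposed may carry one label only). The scFvs were displayed on barcoded MATa yeast, the peptide on MATalpha yeast. Mating (16 h, 30 °C) was followed by selection of diploids and sequencing of their barcodes. A regression on co-assayed BCL2-family reference pairs converts the normalised counts of each replicate to an apparent Kd. Mating was done six times.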

Each variant is given by its three light chain CDRs, as the data file delimits them; those of the parent are KSSQSVLYESRNKNSVA, WASTRES, QQYHRLPLS. Values are log10 of the apparent Kd in nM; lower means stronger binding. A pair that was not seen in that replicate is written "ND"; this usually means weak binding, but a binder can also be missed.

| replicates, log10 nM | CDR-L1 | CDR-L2 | CDR-L3 | group |
|---|---|---|---|---|
| -0.19 -0.40 -0.43 -0.42 -0.33 -0.06 | KMEQGVDYESRNKNSVA | GASTRES | QQYHRLPLS | GP_HC |
| -0.28 -0.36 -0.36 -0.42 -0.43 -0.12 | KMPQSYLYESRNKNSVA | NASQRES | QQYHRLPLS | GP_Gen |
| 0.26 0.05 0.07 -0.12 -0.04 0.00 | KVSQSEPYEERNKNNVA | NASTRMS | QQYHRLPLS | GP_Gibbs |
| 0.96 1.02 0.99 0.95 0.96 1.24 | NMQMDNDRMNDAEKAIA | DVIMRET | QQYNRLPLM | En_Gibbs |
| 0.18 0.30 0.18 0.13 0.16 0.27 | KSSCSVDYEDRNSNSVA | NASQRLW | QQYHRLPLS | GP_Gibbs |
| 2.81 1.91 2.51 2.64 2.42 2.60 | KVSEFMKGLMMRTDSIA | DNNTRSN | QQYDRLPLS | En_Gen |
| 0.24 0.16 -0.06 -0.08 -0.13 0.08 | RLNVFQNVSTQQNNNIA | QAEQKVH | QQYMRLPLY | En_Gibbs |
| -0.07 -0.24 -0.09 -0.21 0.08 -0.23 | KQSQSVLYEWRNKNSVA | NASTRES | QQYHRLPLS | GP_HC |
| -0.17 -0.10 -0.36 -0.42 -0.24 -0.10 | KLSWSVLFESRNKNSVA | DASTRSS | QQYHRLPLS | GP_HC |
| 0.55 0.29 0.03 0.52 0.19 0.69 | KSGQGDLYESRNKNSVA | GASLRES | QQYHRLPLS | GP_HC |
| 0.09 0.14 0.76 0.01 0.37 1.06 | KLSQSELYESRNKNSVA | NASTRMS | QQYHRLPLS | GP_Gen |
| 0.37 0.11 0.09 -0.07 0.14 0.21 | KLSQSNLYEWRNDMSVA | NASQRES | QQYHRLPLS | GP_Gibbs |
| -0.13 -0.38 -0.23 -0.37 -0.39 -0.24 | KLQQSVLYESRNKNNVA | EASTRES | QQYHRLPLS | GP_Gen |
| 0.04 -0.28 -0.15 -0.31 -0.29 -0.06 | KSGQGDLYESRNKNHVA | GASTRES | QQYHRLPLS | GP_HC |
| 0.22 0.17 0.12 -0.17 -0.08 0.26 | KLQQSVLYESRNKNSVA | GASTRMS | QQYHRLPLS | GP_Gen |
| ND 2.75 ND ND 1.79 ND | KSSQSVLYESSNKNSVA | WASTRES | QQYHRYPLS | Ctrl |
| -0.03 -0.20 -0.18 -0.38 -0.29 -0.23 | KLSMSDLYEMRNKNSVA | EASTREK | QQYHRLPLS | GP_Gibbs |
| 1.31 1.97 0.86 0.99 0.76 1.12 | TISQMTSWMSNKKANVA | EVSLREE | QQYDRLPLS | En_Gen |
| 0.89 0.88 1.31 1.04 1.33 0.87 | TISQLHNMGTFAINSVA | QAEIRNA | QQYDRLPLI | En_Gen |
| 1.15 0.66 1.01 0.89 0.98 0.93 | KSSPSPEYESRNKNSVA | WATTRES | QQYHRLPLS | Ctrl |
| 1.35 0.78 2.35 1.56 1.74 1.56 | KLDQKNRVNGMACYNVA | DSNNRLD | QQYHRLPLI | En_Gibbs |
| 1.85 2.21 ND 5.03 2.51 3.49 | MLGDVAQGLSRKEDSVA | DNSTRES | QQYDRLPLS | En_Gen |
| ND -0.64 ND ND ND ND | SMEWEEWNGQSVKHNIA | ADTKVLE | QQYFRLPFT | En_Gibbs |
| 1.64 1.88 ND ND ND ND | KSSQSVLYESRNKNSVA | WASTREL | QQYHHLPYM | Ctrl |
| 0.97 0.60 1.51 0.82 0.94 0.97 | KLYDMAAVTMQNIRNVA | DNSTRED | QQYHRLPLS | En_Gen |
| 0.09 0.14 0.21 0.01 0.43 0.06 | KLSQSVLYESRNKNNVA | EASTRES | QQYHRLPLS | GP_Gen |
| 0.09 -0.22 -0.11 -0.47 -0.08 -0.01 | KVSQSVLYESVNKNSVA | DASTRES | QQYHRLPLS | GPLM_HC |
| 0.39 0.41 0.15 -0.10 0.22 0.31 | SLIPFENQIMKGTNNIA | NTSVRAS | QQYMRLPFV | En_Gibbs |
| -0.14 -0.42 -0.13 -0.49 -0.18 -0.04 | KVSPSHLYESRNKNSVA | NASTRET | QQYHRLPLS | GP_Gibbs |
| 0.44 -0.02 0.12 -0.02 -0.09 -0.02 | KLSQSDLYESRNKNQVA | GASTRES | QQYHRLPLS | GP_Gen |
| 0.69 0.69 0.30 0.11 0.29 0.60 | KYSFSYLNESRNKNSVA | EASTRES | QQYHRLPLS | GP_Gibbs |
| 0.10 -0.17 0.38 0.02 -0.05 0.28 | TISNVMNTLTRQGNNVA | DLQEREN | QQYFRLPLS | En_Gen |
| 0.18 0.46 -0.01 0.55 0.42 0.30 | NIYQAMHTLMQARNNVA | DVTERNN | QQYFRLPLS | En_Gen |
| 0.46 0.22 0.37 0.53 0.97 0.59 | KLSVSVLYESRNKNSVA | YASTRES | QQYHRLPLS | Ctrl |
| ND 1.63 1.15 1.57 0.88 1.95 | NFSQMVLTGSTLRNSVA | HASTRFD | QQYHRLPLI | En_HC |
| -0.41 -0.77 -0.59 -0.82 -0.61 -0.72 | KFSQEVLFESRNKNSVA | DASTRES | QQYHRLPLS | GP_HC |
| 0.67 1.00 0.52 0.31 0.80 0.62 | QLSVFELQGTGWAQNIA | QADHRTE | QQFARLPLV | En_Gibbs |
| -0.10 -0.32 -0.11 -0.40 -0.42 -0.17 | MISDLTSYGSRNKNSVA | DLSTRGS | QQYHRLPLS | En_HC |
| -0.15 0.10 0.13 0.02 0.18 0.26 | KSSISYEYESRNENSVA | EASTREQ | QQYHRLPLS | GP_HC |
| 0.20 -0.06 0.04 -0.06 0.09 0.03 | ALSMSELMESRNWNSVA | HASTREE | QQYHRLPLS | GP_Gibbs |
| 0.09 0.04 -0.11 -0.25 -0.09 0.07 | KLMQSALLESRNFNNVA | QASQREL | QDYHRLPLS | GP_Gibbs |
| 0.25 0.54 0.23 0.23 0.28 0.45 | KLSQSVLYESRMKNSVA | NASTRED | QQYHRLPLS | GP_Gen |
| 0.77 0.60 0.35 0.08 0.43 0.80 | QLQLQPGTGLNAQHSIA | DVSAKDM | QQYARLPLH | En_Gibbs |
| 0.34 0.32 0.30 0.09 0.17 0.44 | KVSQSVLYEDRMKNSVA | NASQRES | QQYHRLPLS | GP_Gen |
| 0.28 0.27 0.00 0.10 0.20 0.12 | KLRWSNLYESRNKNSVA | NASQRCS | QQYHRLPLS | GP_Gibbs |
| 0.41 -0.17 -0.18 -0.22 -0.05 0.00 | KLSCGVDYESRNKNSVA | GASTRES | QAYHRLPLS | GP_Gibbs |
| 0.69 0.28 0.31 0.19 0.35 0.17 | KLGQSAAMTSRMKNNVA | DLNERER | QQYHRLPLS | En_HC |
| 1.27 0.34 0.62 0.61 1.35 1.02 | SLSMSMAFLSRNKNNVA | ENSTRES | QQYHRLPLL | En_HC |
| ND ND ND ND ND 2.65 | KSSQSVLYESRNKNEVA | WASTRES | QQYHRLPLS | Ctrl |
| 0.61 0.41 1.60 1.66 0.83 0.98 | KISQMVRVGSTHSNSIA | EEETRAK | QQYHRLPLA | En_Gen |

Extract of 6 entries:

CDR-L1,CDR-L2,CDR-L3,group,"replicates, log10 nM"
KLDQKNRVNGMACYNVA,DSNNRLD,QQYHRLPLI,En_Gibbs,1.35 0.78 2.35 1.56 1.74 1.56
KVSQSEPYEERNKNNVA,NASTRMS,QQYHRLPLS,GP_Gibbs,0.26 0.05 0.07 -0.12 -0.04 0.00
QLSVFELQGTGWAQNIA,QADHRTE,QQFARLPLV,En_Gibbs,0.67 1.00 0.52 0.31 0.80 0.62
KSSISYEYESRNENSVA,EASTREQ,QQYHRLPLS,GP_HC,-0.15 0.10 0.13 0.02 0.18 0.26
KLGQSAAMTSRMKNNVA,DLNERER,QQYHRLPLS,En_HC,0.69 0.28 0.31 0.19 0.35 0.17
KLSVSVLYESRNKNSVA,YASTRES,QQYHRLPLS,Ctrl,0.46 0.22 0.37 0.53 0.97 0.59

The parent sequence was in this pool as ten entries: three were never detected, three once, and four in most replicates, with averages from 0.34 to 2.37. In the paper, a design with two or fewer of six values counts as a poor binder. The range of this assay differs from that of the first round, and the authors advise against merging the two. Background: pairings of all light chain designs with three empty control strains gave a value in 4% of cases (median 2.64, 5th percentile 1.59). Values in that range, when seen in few replicates, are hard to tell from nonspecific mating.